Measurements published in US20210154269A1.

Experiments:
[1] = biological target: human CD47 (human) (UniProt Q08722); assay: in vitro receptor occupancy assay, at ~1 nM
[2] = biological target: human CD47 (human) (UniProt Q08722); assay: affinity for human CD47; method not stated
[3] = biological target: human CD47 (human) (UniProt Q08722); assay: cell-based or functional assay
[4] = biological target: human CD47 (human) (UniProt Q08722); assay: in vitro receptor occupancy assay (percent CD47 occupancy against concentration in nM)

receptor occupancy [1]: 90%
Kd [2]: 7 nM
EC50, PathHunter SIRPα Signaling Bioassay [3]: 0.0744 µg/mL
inhibition of SIRPα signaling at 1 nM [3]: 80%
EC50 (read off the curve) [4]: 0.2 nM
Substance: F59/magrolimab (antibody)
